Assay results published in article PMC10229639.

Assays:
[1] = molecular target: myosin Va S1 (WT), single-headed construct of chicken myosin Va (residues 1-792) (chicken | not stated) (UniProt Q02440); test: three-bead laser trap assay (mini-ensemble); no added Pi; myosin Va S1 (10 ug/mL) held on nitrocellulose-coated pedestals through c-Myc antibody, actin filament stretched between two trapped beads; trap stiffness 0.04, 0.06 and 0.10 pN/nm; 91 mM KCl, 1 mM EGTA, 4 mM MgCl2, 1 mM DTT, 100 uM ATP, 25 C, pH 7.0; about 4-5 myosin heads in reach of the filament
[2] = molecular target: myosin Va S1 S217A, single-headed construct of chicken myosin Va (residues 1-792) with a mutation in switch I (chicken | not stated) (UniProt Q02440); test: as above
[3] = molecular target: myosin Va S1 (WT), single-headed construct of chicken myosin Va (residues 1-792) (chicken | not stated) (UniProt Q02440); test: three-bead laser trap assay (mini-ensemble); 30 mM Pi; myosin Va S1 (10 ug/mL) held on nitrocellulose-coated pedestals through c-Myc antibody, actin filament stretched between two trapped beads; trap stiffness 0.04, 0.06 and 0.10 pN/nm; KCl reduced to keep ionic strength 125 mM, 100 uM ATP, 25 C, pH 7.0
[4] = molecular target: myosin Va S1 S217A, single-headed construct of chicken myosin Va (residues 1-792) with a mutation in switch I (chicken | not stated) (UniProt Q02440); test: as above

Substance: actin filament (actin isolated from chicken skeletal muscle) (from UniProt P68139 1-377) (natural protein)
- increase of binding event lifetime at 0.1 against 0.04 pN/nm, 0 mM Pi [1]: 50%
- ko (detachment rate from actin without load, Bell-bond fit), 0 mM Pi [1]: 16.8 s⁻¹
- ko (detachment rate from actin without load, Bell-bond fit), 0 mM Pi [2]: 11.1 s⁻¹
- binding event lifetime at 0.10 pN/nm with 30 mM Pi, percent of control (0.04 pN/nm, 0 mM Pi) (% of the control value) [3]: < 50
- further reduction of binding event lifetime at 0.06 against 0.04 pN/nm, 30 mM Pi [3]: 15%
- ko (detachment rate from actin without load, Bell-bond fit), 30 mM Pi [3]: 13.7 s⁻¹
- rate of Pi-induced detachment from actin at a 4 pN load (Bell-bond fit), 30 mM Pi [3]: 10 s^−1
- rate of Pi-induced detachment from actin without load (Bell-bond fit), 30 mM Pi [3]: 5 s⁻¹
- reduction of average binding event lifetime with 30 mM Pi against 0 mM Pi (0.04 pN/nm) [3]: 25%
- further reduction of binding event lifetime at 0.10 against 0.06 pN/nm, 30 mM Pi [4]: 35%
- ko (detachment rate from actin without load, Bell-bond fit), 30 mM Pi [4]: 2.5 s⁻¹
- rate of Pi-induced detachment from actin without load (Bell-bond fit), 30 mM Pi [4]: 1.4 s⁻¹
- reduction of mean binding event lifetime at 0.06 against 0.04 pN/nm, 30 mM Pi [4]: 23%
